The list shows a part of the results, in another mix than the full data. Results filed as inconclusive are left out. Where a call stands in place of a potency, no number is given. Active and inactive are the calls of the source. The call rests on the fitted dose curve.
target: Progesterone receptor (Homo sapiens) (UniProt P06401); assay: qHTS assay to identify small molecule agonists of the progesterone receptor (PR) signaling pathway (AID 1346784); settings: PR-UAS-bla HEK293T, beta-lactamase FRET ratio, 16 h; series mostly up to 92.4 µM; further: nearly all actives have a fitted effect of over 30% in size
Source text: U.S. Tox21 Program National Center for Advancing Translational Sciences [NCATS] NIH Chemical Genomics Center [NCGC] U.S. Environmental Protection Agency [EPA] National Institutes of Environmental Health Sciences [NIEHS] National Toxicology Program [NTP] U.S. Food and Drug Administration [FDA] […] Endocrine disrupting chemicals (EDCs) and their interactions with steroid hormone receptors like PR causes disruption of normal endocrine function. To identify the compounds that activate PR signaling, a PR-UAS-bla GripTite cell line i.e. PR-UAS-bla HEK 293T (Invitrogen, Carlsbad, CA, USA) containing a beta-lactamase reporter gene under the control of an Upstream Activator Sequence (UAS) was used to screen Tox21 10K compound library.
Tox21 Assay Protocol Summary: PR-UAS-bla HEK 293T cells were dispensed at 3,000 cells/5 uL of assay medium containing 2% charcoal stripped FBS per well into black wall/clear-bottom 1536-well plates using a Multidrop Combi (ThermoFisher Scientific, Waltham, MA) dispenser. After the assay plates were incubated at a 37C and 5% CO2 for 6hr, 23 nL of compounds dissolved in DMSO, positive controls or DMSO only was transferred to the assay plate by a Pintool station (Kalypsys, San Diego, CA). The plates were incubated at 37C and 5% CO2 for 16hr. Then 1 uL of LiveBLAzer B/G FRET substrate was added using a BioRAPTR FRD (Flying Reagent Dispenser, Aurora Discovery, San Diego, CA). After the plates were incubated at room temperature for 2 hours, fluorescence intensity was measured by an Envision plate reader (PerkinElmer, Shelton, CT).
Potency means the concentration at half of the fitted maximal effect.

By UniProt entry, the sequences of proteins in these tests, tags left out. Where a name states a change or a piece, a line headed by the entry shows the natural chain unless it says otherwise.
UniProt P06401: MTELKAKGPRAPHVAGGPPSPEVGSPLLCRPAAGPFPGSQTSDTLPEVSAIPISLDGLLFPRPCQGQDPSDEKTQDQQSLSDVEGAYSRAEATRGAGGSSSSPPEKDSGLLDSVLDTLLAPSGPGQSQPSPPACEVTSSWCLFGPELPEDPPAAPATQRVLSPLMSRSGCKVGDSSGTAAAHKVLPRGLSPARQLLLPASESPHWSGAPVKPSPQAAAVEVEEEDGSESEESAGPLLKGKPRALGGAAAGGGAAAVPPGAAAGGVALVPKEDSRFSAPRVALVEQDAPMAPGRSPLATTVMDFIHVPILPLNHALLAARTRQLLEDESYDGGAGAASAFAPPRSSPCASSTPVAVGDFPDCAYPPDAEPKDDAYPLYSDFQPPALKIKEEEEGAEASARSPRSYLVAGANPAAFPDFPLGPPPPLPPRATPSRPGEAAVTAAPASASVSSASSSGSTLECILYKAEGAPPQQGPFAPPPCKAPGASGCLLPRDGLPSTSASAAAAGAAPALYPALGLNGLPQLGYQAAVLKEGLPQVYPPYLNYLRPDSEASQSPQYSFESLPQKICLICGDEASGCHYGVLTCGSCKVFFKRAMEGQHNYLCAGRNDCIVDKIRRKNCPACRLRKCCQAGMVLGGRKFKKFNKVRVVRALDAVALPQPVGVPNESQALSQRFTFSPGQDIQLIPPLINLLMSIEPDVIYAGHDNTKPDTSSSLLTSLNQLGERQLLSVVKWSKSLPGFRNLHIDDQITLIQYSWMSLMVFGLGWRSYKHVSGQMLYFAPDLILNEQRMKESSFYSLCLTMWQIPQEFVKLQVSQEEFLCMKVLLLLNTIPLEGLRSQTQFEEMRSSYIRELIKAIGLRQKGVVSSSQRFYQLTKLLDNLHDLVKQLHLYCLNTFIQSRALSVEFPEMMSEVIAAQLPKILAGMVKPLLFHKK

Compound | Potency | activation
O=C(Cl)Oc1ccccc1 | inactive | 
CN(N=O)C(=N)N[N+](=O)[O-] | inactive | 
O=[p+]1oc2ccccc2c2ccccc21 (stereo not drawn) | inactive | 
CCCCOP(OCCCC)OCCCC | inactive | 
CCNC(C)Cc1ccc2c(c1)OCO2 (stereo not drawn) | inactive | 
O=[P+](Oc1ccccc1)Oc1ccccc1 | inactive | 
CCCCO[P+](=O)OCCCC | inactive | 
CCOP(=S)(CC)Sc1ccccc1 (stereo not drawn) | inactive | 
O=C(Cl)OCCOC(=O)Cl | inactive | 
ClP(Cl)c1ccccc1 | inactive | 
CCOC(=O)Cl | inactive | 
CC(C)CCCCCCCOP(OCCCCCCCC(C)C)Oc1ccccc1 | inactive | 
COP(=S)(Cl)OC | inactive | 
O=P(Cl)(Cl)c1ccccc1 | inactive | 
COC(=O)Cl | inactive | 
CN(C(=O)Cc1ccccc1)[C@H]1CC[C@@]2(CCCO2)C[C@@H]1N1CCCC1 | inactive | 
O=[N+]([O-])c1ccc(S(=O)(=O)O)c([N+](=O)[O-])c1 | active: 24.5 µM | 
CCC(C)(OOC(C)(C)C)OOC(C)(C)C |  | inactive: -0.244% [at 19 µM]
NC(=O)Nc1ccc([As](=O)(O)O)cc1 | inactive | 
O=P(Cl)(Oc1ccccc1)Oc1ccccc1 | inactive | 
CN(C(=O)Cc1ccc(Cl)c(Cl)c1)[C@H]1CC[C@@]2(CCCO2)C[C@@H]1N1CCCC1 | inactive | 
CCCCC(CC)CO[P+](=O)OCC(CC)CCCC (stereo not drawn) | inactive | 
CN(C(=O)Cc1cccc2occc12)[C@H]1CC[C@@]2(CCCO2)C[C@@H]1N1CCCC1 | inactive | 

Source: PubChem BioAssay (Tox21)
